Values of other authors in patent publication US9669014B2, “Small molecule inhibitors of superoxide dismutase expression” (Northwestern University, priority 2014, dated 2017).

Test system: CDK5, CDK2, CDK1, CDK4
Conditions: cited from earlier work

In the case of `O=C1NC(=O)C(c2cn(CCCO)c3ncccc23)=C1c1cnccn1`, the “Comments: other kinases inhibited” value is given as “Also inhibits CDK4”.
